Sequences of proteins named here, by UniProt entry; tags and fusion partners are left off. A change or cut given only in a name is not applied to a line headed by its entry.
UniProt O00408, whole entry: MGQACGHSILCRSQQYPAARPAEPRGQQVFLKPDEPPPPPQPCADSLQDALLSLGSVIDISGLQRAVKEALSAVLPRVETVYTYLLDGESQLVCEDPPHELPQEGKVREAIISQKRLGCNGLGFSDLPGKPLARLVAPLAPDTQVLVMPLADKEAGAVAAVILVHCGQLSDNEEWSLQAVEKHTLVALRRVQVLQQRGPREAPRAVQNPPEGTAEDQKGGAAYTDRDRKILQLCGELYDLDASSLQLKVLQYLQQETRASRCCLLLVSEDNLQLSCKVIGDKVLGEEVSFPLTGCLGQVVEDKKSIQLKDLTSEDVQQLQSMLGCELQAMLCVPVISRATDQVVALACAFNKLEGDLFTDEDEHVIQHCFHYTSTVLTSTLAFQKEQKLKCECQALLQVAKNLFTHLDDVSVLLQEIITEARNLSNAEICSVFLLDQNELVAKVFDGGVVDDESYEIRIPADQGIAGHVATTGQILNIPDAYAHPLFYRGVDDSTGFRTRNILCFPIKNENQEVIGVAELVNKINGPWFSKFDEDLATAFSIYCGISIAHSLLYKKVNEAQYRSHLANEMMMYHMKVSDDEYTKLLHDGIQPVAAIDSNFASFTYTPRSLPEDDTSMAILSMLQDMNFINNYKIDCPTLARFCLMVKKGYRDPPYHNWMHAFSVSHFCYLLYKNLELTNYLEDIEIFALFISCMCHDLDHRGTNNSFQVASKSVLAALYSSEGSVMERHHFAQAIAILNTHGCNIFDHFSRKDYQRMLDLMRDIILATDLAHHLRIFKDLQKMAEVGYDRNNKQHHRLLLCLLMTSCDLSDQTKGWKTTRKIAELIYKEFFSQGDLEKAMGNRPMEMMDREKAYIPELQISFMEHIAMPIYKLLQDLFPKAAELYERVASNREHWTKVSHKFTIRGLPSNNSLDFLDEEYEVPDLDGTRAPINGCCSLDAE
UniProt O76083: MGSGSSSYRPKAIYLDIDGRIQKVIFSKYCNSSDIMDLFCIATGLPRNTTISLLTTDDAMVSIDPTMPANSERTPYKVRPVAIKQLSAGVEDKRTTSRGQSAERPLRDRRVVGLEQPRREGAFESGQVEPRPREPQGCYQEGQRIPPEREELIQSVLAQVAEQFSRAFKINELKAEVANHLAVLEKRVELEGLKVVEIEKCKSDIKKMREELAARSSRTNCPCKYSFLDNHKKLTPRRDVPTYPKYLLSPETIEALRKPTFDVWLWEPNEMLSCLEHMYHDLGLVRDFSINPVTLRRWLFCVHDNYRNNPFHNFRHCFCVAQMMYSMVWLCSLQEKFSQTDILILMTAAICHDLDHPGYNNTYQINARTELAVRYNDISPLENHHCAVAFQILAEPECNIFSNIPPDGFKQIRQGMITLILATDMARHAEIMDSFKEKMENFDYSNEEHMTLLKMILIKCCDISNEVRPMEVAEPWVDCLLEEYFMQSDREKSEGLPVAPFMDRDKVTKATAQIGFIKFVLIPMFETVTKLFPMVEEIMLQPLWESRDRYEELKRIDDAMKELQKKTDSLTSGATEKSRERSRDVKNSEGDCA

In ChEMBL document CHEMBL4396872, “Pharmacokinetics-Driven Optimization of 4(3 H)-Pyrimidinones as Phosphodiesterase Type 5 Inhibitors Leading to TPN171, a Clinical Candidate for the Treatment of Pulmonary Arterial Hypertension” (J Med Chem, 2019):

Assays:
[1] = target: cGMP-dependent 3',5'-cyclic phosphodiesterase (Homo sapiens, UniProt O00408); experiment: Inhibition of human PDE2A1 expressed in baculovirus infected sf9 cells using [3H]cAMP as substrate measured after 30 mins by scintillation proximity assay
[2] = target: High affinity cGMP-specific 3',5'-cyclic phosphodiesterase 9A (Homo sapiens, UniProt O76083); experiment: Inhibition of N-terminal GST-tagged full length human PDE9A2 expressed in baculovirus infected sf9 cells using [3H]cGMP as substrate measured after 30 mins by scintillation proximity assay

`CCCc1nn(C)c2c(=O)[nH]c(-c3cc(S(=O)(=O)N4CCN(C)CC4)ccc3OCC)nc12` gave an IC50 [1] greater than 10 µM and an IC50 [2] greater than 10 µM.
